# Experimental data from published antibiotic growth screens (doi:10.1038/s41589-023-01349-8).
# Some of the results follow.
# Tested on: A. baumannii ATCC 17978
# Assay: relative growth (fraction of control); higher = less inhibition
# Details: 50 µM
row,SMILES,relative growth
1,C=CC[C@@H](CC(=O)N(CCO)Cc1ccccc1)C(=O)N[C@@H](COC(=O)[C@H](CC=C)CC(=O)OC(C)(C)C)Cc1c[nH]c2ccccc12,1.3
2,CC(C)/N=c1\cc2n(-c3ccc(Cl)cc3)c3ccccc3nc-2cc1Nc1ccc(Cl)cc1,1.05
3,CC(=O)NCCCS(=O)(=O)[O-].CC(=O)NCCCS(=O)(=O)[O-].[Ca+2],1.13
4,COc1ccc(Cc2c(O)[nH]c(N)nc2=O)cc1,1.02
5,CN(C)C(=N)NC(=N)N.Cl,1.06
6,COC(=O)C[C@@H]1CC[C@@H]2[C@H](COC[C@@H](O)CN2S(=O)(=O)c2cn(C)cn2)O1,1.12
7,CN1CCc2nc(C(=O)NC3C[C@@H](C(=O)N(C)C)CC[C@@H]3NC(=O)C(=O)Nc3ccc(Cl)cn3)sc2C1.Cc1ccc(S(=O)(=O)O)cc1.O (stereo not given in full),1.15
8,COc1cccc(NC(=O)N2C[C@@H](O)COC[C@@H]3O[C@H](CC(=O)NCc4ccccc4F)CC[C@H]32)c1,0.976
9,COCOc1ccc2cc(Br)ccc2c1-c1c(OCOC)ccc2cc(Br)ccc12,3.49
10,CC(C)CC#Cc1ccc2c(c1)O[C@@H](CN(C)C(=O)c1ccncc1)[C@H](C)CN([C@@H](C)CO)S2(=O)=O,0.968
11,CCOC(=O)C(C)(C)Oc1ccc(Cl)cc1,1.26
12,O=C(C[C@@H]1CC[C@@H]2[C@H](COC[C@H](O)CN2C(=O)Nc2cccc(Cl)c2)O1)NCCCN1CCOCC1,0.772
13,Cl.N[C@H](Cc1ccccc1)C(=O)O,0.938
14,O=C(C[C@@H]1CC[C@H]2[C@@H](COC[C@@H](O)CN2C(=O)c2ccccc2)O1)NCCCN1CCOCC1,0.875
15,O=C(N[C@@H]1C=C[C@@H](CC(=O)N2CCOCC2)O[C@H]1CO)c1ccc2c(c1)OCO2,1.29
16,CCC(Cc1c(I)cc(I)c(N)c1I)C(=O)O (stereo not given),0.945
17,Cc1ccc(S[C@]2(C(=O)NC(C)C)CC(=O)N(Cc3ccccc3Cl)[C@@H]2c2ccc(CO)cc2)cc1,0.877
18,CN(C)[C@H]1CS(=O)(=O)C[C@@H]1N(C)C,0.873
19,C[C@]12CC[C@@H]3c4ccc(O)cc4CC[C@H]3[C@@H]1CC[C@@H]2OC(=O)CCC1CCCC1,1.34
20,CCCC(=O)O,1.1
21,COc1ccc(S(=O)(=O)N[C@@H]2CC[C@@H](CC(=O)N3CCN(c4ccccc4)CC3)O[C@H]2CO)cc1,1.07
22,O=C1C=C2CC3(O)COc4c(ccc(O)c4O)C3=C2C=C1O (stereo not given),1.06
23,O=S(=O)(NCC[C@H]1CC[C@@H](NS(=O)(=O)c2cccc(Cl)c2)[C@@H](CO)O1)c1cccc(F)c1,0.969
24,Nc1nc(=O)c2c(CCc3ccc(C(=O)N[C@@H](CCC(=O)[O-])C(=O)[O-])cc3)c[nH]c2[nH]1.[Na+].[Na+],1.01
25,CC(=O)OCC(=O)[C@@]1(O)[C@H](OC(C)=O)CC2C3CCC4=CC(=O)C=C[C@]4(C)[C@@]3(F)[C@@H](O)C[C@@]21C (stereo not given in full),1.09
26,O=c1nc(N2CCc3ccccc3C2)cn[nH]1,1.08
27,C[C@@H]1CN([C@H](C)CO)S(=O)(=O)c2ccc(-c3cccc(C#N)c3)cc2O[C@@H]1CN(C)C(=O)c1cccnc1,0.966
28,O=C1c2ccccc2[C@@]2(Cc3ccccc3N(Cc3ccccc3)C2=O)[C@H](c2ccc(CO)cc2)N1Cc1ccccc1C(F)(F)F,0.919

row,SMILES,relative growth
1,Nc1nc(N)nc(-c2cc(Cl)ccc2Cl)n1.O=C(O)/C=C\C(=O)O,0.839
2,CO[C@H]1CN(C)C(=O)c2ccc(NS(C)(=O)=O)cc2OC[C@@H](C)N(C(=O)C2CCOCC2)C[C@H]1C,1.07
3,Cc1ccc(S(=O)(=O)C[C@H]2O[C@@H](n3cc(I)c(=O)[nH]c3=O)C[C@@H]2O)cc1,1.04
4,N#CC(c1ccc(Cl)cc1)c1c(Cl)cc(-n2ncc(=O)[nH]c2=O)cc1Cl (stereo not given),1.09
5,COc1ccc(NC(=O)N2C[C@H](O)COC[C@H]3O[C@@H](CC(=O)NCc4ccccc4OC)CC[C@@H]32)cc1,0.953
6,CNC(=O)C[C@H]1CC[C@@H]2[C@H](COC[C@@H](O)CN2C(=O)c2ccc3c(c2)OCO3)O1,1.03
7,CC1=CC(=O)[N-]S(=O)(=O)O1.[K+],0.873
8,Cc1cc(C(=O)NN)n(C(C)(C)C)n1,0.853
9,Cl.O=C1NCC2(CCN(CCc3ccccc3)CC2)O1,1.14
10,CC(C)(C)C(=O)OCOP(=O)(COCCn1cnc2c(N)ncnc21)OCOC(=O)C(C)(C)C,1.2
11,C[C@H]1CN([C@@H](C)CO)S(=O)(=O)c2ccc(C#Cc3ccccc3)cc2O[C@@H]1CN(C)S(=O)(=O)c1ccccc1F,0.881
12,CO/N=C(/C(=O)N[C@@H]1C(=O)N2C(C(=O)[O-])=C(CSc3nc(=O)c([O-])nn3C)CS[C@H]12)c1csc(N)n1.O.O.O.[Na+].[Na+],0.769
13,COc1ccccc1N1CCN(CC(O)COc2cccc3ccccc23)CC1 (stereo not given),0.865
14,C/C(Cc1ncn(-c2cc(C)on2)n1)=N\O,0.925
15,C[C@H](O)C#Cc1ccc2c(c1)O[C@@H](CN(C)C(=O)CN(C)C)[C@@H](C)CN([C@H](C)CO)S2(=O)=O,1.01
16,CCNC(=S)NCC1CC1,1.1
17,NCCNC1=NS(=O)(=O)c2ccccc21,1.03
18,CCCN(CCC)C(=O)C(CCC(=O)O)NC(=O)c1ccccc1 (stereo not given),1.18
19,NNCCc1ccccc1.O=S(=O)(O)O,0.223
20,NNC(=O)c1ccc2c(=O)[nH][nH]c(=O)c2c1,1.05
21,CN(CC(=O)O)S(=O)(=O)c1ccc(F)cc1,0.881
22,CCN(CC)CCOc1ccc(/C(=C(\Cl)c2ccccc2)c2ccccc2)cc1.O=C(O)CC(O)(CC(=O)O)C(=O)O,0.688
23,CCCCC[C@H](CC(=O)O)C(=O)O,1.17
24,C[C@H](CO)N1C[C@H](C)[C@H](CN(C)C(=O)Cc2cccnc2)Oc2cc(C#CC3(O)CCCC3)ccc2S1(=O)=O,0.939
25,CN(C)Cc1cn(CC[C@H]2CC[C@H](NS(=O)(=O)c3ccccc3)[C@@H](CO)O2)nn1,1.21
26,C[C@H]1c2cccc(O)c2C(=O)C2=C(O)[C@]3(O)C(=O)C(C(N)=O)=C(O)[C@@H](N(C)C)[C@@H]3[C@@H](O)[C@@H]21.Cl,0.177
27,COCC#Cc1ccc2c(c1)O[C@@H](CN(C)C(=O)COC)[C@@H](C)CN([C@@H](C)CO)S2(=O)=O,0.924
